Assay results taken from patent publication US12171806B2, “Therapeutic regimens and methods for lowering blood glucose and/or body weight using GLP-1R and GCGR balanced agonists” (priority 2021, dated 2024).

Experiment: Phase 1 MAD study of ALT-801: adverse events (TEAEs), safety overview

For `CC[C@H](C)[C@H](NC(=O)[C@H](Cc1ccccc1)NC(=O)[C@H](CCC(=O)O)NC(=O)[C@@H]1CCCCNC(=O)CC[C@H](NC(=O)[C@H](CC(=O)O)NC(=O)[C@H](CC(C)C)NC(=O)[C@H](Cc2ccc(O)cc2)NC(=O)[C@H](CCCCN)NC(=O)[C@H](CO)NC(=O)[C@H](Cc2ccc(O)cc2)NC(=O)[C@H](CC(=O)O)NC(=O)[C@H](CO)NC(=O)[C@@H](NC(=O)[C@H](Cc2ccccc2)NC(=O)[C@@H](NC(=O)CNC(=O)[C@H](CCC(N)=O)NC(=O)C(C)(C)NC(=O)[C@@H](N)Cc2c[nH]cn2)[C@@H](C)O)[C@@H](C)O)C(=O)N[C@@H](CCCCNC(=O)[C@H]2O[C@@H](OCCCCCCCCCCCCCCCCCC(=O)O)[C@H](O)[C@@H](O)[C@@H]2O)C(=O)N[C@@H](C)C(=O)N[C@@H](C)C(=O)N1)C(=O)N[C@@H](CCC(N)=O)C(=O)N[C@@H](Cc1c[nH]c2ccccc12)C(=O)N[C@@H](CC(C)C)C(=O)N[C@@H](CC(C)C)C(=O)N[C@@H](CCC(N)=O)C(=O)N[C@H](C(N)=O)[C@@H](C)O` [ALT-801, pemvidutide], which “TEAE Injection site bruising; Moderate; %” value (M2 1.8 mg (N = 9)) is on record?
The value was “(0.0%)”.

And the “TEAE Injection site bruising; Moderate; n” value (M2 1.8 mg (N = 9))?
The value was 0.

And the “TEAE Injection site bruising; PLT; %” value (M2 1.8 mg (N = 9))?
The value was “(0.0%)”.

And the “TEAE Injection site bruising; PLT; n” value (M2 1.8 mg (N = 9))?
Its value is 0.

And the “TEAE Injection site bruising; Severe; %” value (M2 1.8 mg (N = 9))?
Its value is “(0.0%)”.

And the “TEAE Injection site bruising; Severe; n” value (M2 1.8 mg (N = 9))?
Its value is 0.

And the “TEAE Injection site dermatitis; Mild; %” value (M2 1.8 mg (N = 9))?
Its value is “(11.1%)”.

And the “TEAE Injection site dermatitis; Mild; n” value (M2 1.8 mg (N = 9))?
The value was 1.

And the “TEAE Injection site dermatitis; Moderate; %” value (M2 1.8 mg (N = 9))?
Its value is “(0.0%)”.

And the “TEAE Injection site dermatitis; Moderate; n” value (M2 1.8 mg (N = 9))?
The value was 0.

And the “TEAE Injection site dermatitis; PLT; %” value (M2 1.8 mg (N = 9))?
Its value is “(0.0%)”.

And the “TEAE Injection site dermatitis; PLT; n” value (M2 1.8 mg (N = 9))?
Its value is 0.

What about the “TEAE Injection site dermatitis; Severe; %” value (M2 1.8 mg (N = 9)) of the same compound?
Its value is “(0.0%)”.

And the “TEAE Injection site dermatitis; Severe; n” value (M2 1.8 mg (N = 9))?
The value was 0.

What about the “TEAE Nausea; Mild; %” value (M2 1.8 mg (N = 9)) of the same compound?
The value was “(55.6%)”.

What about the “TEAE Nausea; Mild; n” value (M2 1.8 mg (N = 9)) of the same compound?
The value was 5.

What about the “TEAE Nausea; Moderate; %” value (M2 1.8 mg (N = 9)) of the same compound?
The value was “(11.1%)”.

And the “TEAE Nausea; Moderate; n” value (M2 1.8 mg (N = 9))?
Its value is 1.

And the “TEAE Nausea; PLT; %” value (M2 1.8 mg (N = 9))?
Its value is “(0.0%)”.

And the “TEAE Nausea; PLT; n” value (M2 1.8 mg (N = 9))?
Its value is 0.

And the “TEAE Nausea; Severe; %” value (M2 1.8 mg (N = 9))?
Its value is “(0.0%)”.

What about the “TEAE Nausea; Severe; n” value (M2 1.8 mg (N = 9)) of the same compound?
Its value is 0.

What about the “TEAE Palpitation; Mild; %” value (M2 1.8 mg (N = 9)) of the same compound?
Its value is “(0.0%)”.

What about the “TEAE Palpitation; Mild; n” value (M2 1.8 mg (N = 9)) of the same compound?
The value was 0.

And the “TEAE Palpitation; Moderate; %” value (M2 1.8 mg (N = 9))?
The value was “(0.0%)”.

What about the “TEAE Palpitation; Moderate; n” value (M2 1.8 mg (N = 9)) of the same compound?
Its value is 0.

What about the “TEAE Palpitation; PLT; %” value (M2 1.8 mg (N = 9)) of the same compound?
Its value is “(0.0%)”.

What about the “TEAE Palpitation; PLT; n” value (M2 1.8 mg (N = 9)) of the same compound?
The value was 0.

What about the “TEAE Palpitation; Severe; %” value (M2 1.8 mg (N = 9)) of the same compound?
Its value is “(0.0%)”.

And the “TEAE Palpitation; Severe; n” value (M2 1.8 mg (N = 9))?
Its value is 0.

And the “TEAE Peripheral swelling; Mild; %” value (M2 1.8 mg (N = 9))?
The value was “(0.0%)”.

And the “TEAE Peripheral swelling; Mild; n” value (M2 1.8 mg (N = 9))?
The value was 0.

And the “TEAE Peripheral swelling; Moderate; %” value (M2 1.8 mg (N = 9))?
Its value is “(0.0%)”.

And the “TEAE Peripheral swelling; Moderate; n” value (M2 1.8 mg (N = 9))?
The value was 0.

And the “TEAE Peripheral swelling; PLT; %” value (M2 1.8 mg (N = 9))?
Its value is “(0.0%)”.

What about the “TEAE Peripheral swelling; PLT; n” value (M2 1.8 mg (N = 9)) of the same compound?
Its value is 0.

What about the “TEAE Peripheral swelling; Severe; %” value (M2 1.8 mg (N = 9)) of the same compound?
Its value is “(0.0%)”.

And the “TEAE Peripheral swelling; Severe; n” value (M2 1.8 mg (N = 9))?
The value was 0.

What about the “TEAE Rectal haemorrhage; Mild; %” value (M2 1.8 mg (N = 9)) of the same compound?
Its value is “(11.1%)”.

And the “TEAE Rectal haemorrhage; Mild; n” value (M2 1.8 mg (N = 9))?
Its value is 1.

And the “TEAE Rectal haemorrhage; Moderate; %” value (M2 1.8 mg (N = 9))?
Its value is “(0.0%)”.

What about the “TEAE Rectal haemorrhage; Moderate; n” value (M2 1.8 mg (N = 9)) of the same compound?
Its value is 0.

And the “TEAE Rectal haemorrhage; PLT; %” value (M2 1.8 mg (N = 9))?
Its value is “(0.0%)”.

What about the “TEAE Rectal haemorrhage; PLT; n” value (M2 1.8 mg (N = 9)) of the same compound?
The value was 0.

What about the “TEAE Rectal haemorrhage; Severe; %” value (M2 1.8 mg (N = 9)) of the same compound?
Its value is “(0.0%)”.

What about the “TEAE Rectal haemorrhage; Severe; n” value (M2 1.8 mg (N = 9)) of the same compound?
Its value is 0.

And the “TEAE Tachycardia; Mild; %” value (M2 1.8 mg (N = 9))?
The value was “(0.0%)”.

And the “TEAE Tachycardia; Mild; n” value (M2 1.8 mg (N = 9))?
The value was 0.

What about the “TEAE Tachycardia; Moderate; %” value (M2 1.8 mg (N = 9)) of the same compound?
Its value is “(0.0%)”.

And the “TEAE Tachycardia; Moderate; n” value (M2 1.8 mg (N = 9))?
The value was 0.

What about the “TEAE Tachycardia; PLT; %” value (M2 1.8 mg (N = 9)) of the same compound?
The value was “(0.0%)”.

And the “TEAE Tachycardia; PLT; n” value (M2 1.8 mg (N = 9))?
Its value is 0.

What about the “TEAE Tachycardia; Severe; %” value (M2 1.8 mg (N = 9)) of the same compound?
The value was “(0.0%)”.

And the “TEAE Tachycardia; Severe; n” value (M2 1.8 mg (N = 9))?
The value was 0.

And the “TEAE Tooth impacted; Mild; %” value (M2 1.8 mg (N = 9))?
Its value is “(0.0%)”.

And the “TEAE Tooth impacted; Mild; n” value (M2 1.8 mg (N = 9))?
The value was 0.

And the “TEAE Tooth impacted; Moderate; %” value (M2 1.8 mg (N = 9))?
The value was “(0.0%)”.

And the “TEAE Tooth impacted; Moderate; n” value (M2 1.8 mg (N = 9))?
The value was 0.

What about the “TEAE Tooth impacted; PLT; %” value (M2 1.8 mg (N = 9)) of the same compound?
The value was “(0.0%)”.

What about the “TEAE Tooth impacted; PLT; n” value (M2 1.8 mg (N = 9)) of the same compound?
Its value is 0.

What about the “TEAE Tooth impacted; Severe; %” value (M2 1.8 mg (N = 9)) of the same compound?
The value was “(0.0%)”.

And the “TEAE Tooth impacted; Severe; n” value (M2 1.8 mg (N = 9))?
Its value is 0.

And the “TEAE Toothache; Mild; %” value (M2 1.8 mg (N = 9))?
Its value is “(11.1%)”.

And the “TEAE Toothache; Mild; n” value (M2 1.8 mg (N = 9))?
The value was 1.

And the “TEAE Toothache; Moderate; %” value (M2 1.8 mg (N = 9))?
Its value is “(0.0%)”.

And the “TEAE Toothache; Moderate; n” value (M2 1.8 mg (N = 9))?
The value was 0.

And the “TEAE Toothache; PLT; %” value (M2 1.8 mg (N = 9))?
Its value is “(0.0%)”.

And the “TEAE Toothache; PLT; n” value (M2 1.8 mg (N = 9))?
The value was 0.

And the “TEAE Toothache; Severe; %” value (M2 1.8 mg (N = 9))?
The value was “(0.0%)”.

And the “TEAE Toothache; Severe; n” value (M2 1.8 mg (N = 9))?
Its value is 0.

What about the “TEAE Vessel puncture site pain; Mild; %” value (M2 1.8 mg (N = 9)) of the same compound?
Its value is “(11.1%)”.

And the “TEAE Vessel puncture site pain; Mild; n” value (M2 1.8 mg (N = 9))?
The value was 1.

And the “TEAE Vessel puncture site pain; Moderate; %” value (M2 1.8 mg (N = 9))?
The value was “(0.0%)”.

And the “TEAE Vessel puncture site pain; Moderate; n” value (M2 1.8 mg (N = 9))?
Its value is 0.

What about the “TEAE Vessel puncture site pain; PLT; %” value (M2 1.8 mg (N = 9)) of the same compound?
Its value is “(0.0%)”.

And the “TEAE Vessel puncture site pain; PLT; n” value (M2 1.8 mg (N = 9))?
Its value is 0.

And the “TEAE Vessel puncture site pain; Severe; %” value (M2 1.8 mg (N = 9))?
The value was “(0.0%)”.

And the “TEAE Vessel puncture site pain; Severe; n” value (M2 1.8 mg (N = 9))?
The value was 0.

What about the “TEAE Vomiting; Mild; %” value (M2 1.8 mg (N = 9)) of the same compound?
The value was “(11.1%)”.

And the “TEAE Vomiting; Mild; n” value (M2 1.8 mg (N = 9))?
Its value is 1.

What about the “TEAE Vomiting; Moderate; %” value (M2 1.8 mg (N = 9)) of the same compound?
Its value is “(11.1%)”.

What about the “TEAE Vomiting; Moderate; n” value (M2 1.8 mg (N = 9)) of the same compound?
Its value is 1.

And the “TEAE Vomiting; PLT; %” value (M2 1.8 mg (N = 9))?
The value was “(0.0%)”.

And the “TEAE Vomiting; PLT; n” value (M2 1.8 mg (N = 9))?
The value was 0.

And the “TEAE Vomiting; Severe; %” value (M2 1.8 mg (N = 9))?
The value was “(0.0%)”.

What about the “TEAE Vomiting; Severe; n” value (M2 1.8 mg (N = 9)) of the same compound?
The value was 0.

And the “TEAE Cough, maximum severity Mild, subjects %” value (M2 1.8 mg ALT-801 (N = 9))?
The value was “(0.0%)”.

What about the “TEAE Cough, maximum severity Mild, subjects n” value (M2 1.8 mg ALT-801 (N = 9)) of the same compound?
Its value is 0.

And the “TEAE Cough, maximum severity Moderate, subjects %” value (M2 1.8 mg ALT-801 (N = 9))?
Its value is “(0.0%)”.

What about the “TEAE Cough, maximum severity Moderate, subjects n” value (M2 1.8 mg ALT-801 (N = 9)) of the same compound?
The value was 0.
